Test results taken from published antibiotic growth screens (doi:10.1038/s41589-023-01349-8).
The other results are listed elsewhere or left out.

These compounds were tested on A. baumannii ATCC 17978 (assay: relative growth (fraction of control); higher = less inhibition). Conditions: 50 µM.

SMILES | relative growth
C[C@H](CO)N1C[C@H](C)[C@H](CN(C)C(=O)C2CCCCC2)Oc2cc(C#Cc3ccncc3)ccc2S1(=O)=O | 0.893
COC1=CC(=O)c2ccccc2C1=O | 0.421
C[C@H]1O[C@@H](OC[C@H]2O[C@@H](OC[C@]3(C)[C@H]4CC[C@@]5(C)[C@H](CC[C@H]6C7=CC(C)(C)CC[C@]7(C(=O)O)CC[C@@]65C)[C@@]4(C)CC[C@@H]3O)[C@@H](O)[C@@H](O)[C@@H]2O)[C@@H](O)[C@@H](O)[C@@H]1O | 0.912
COCC#Cc1ccc2c(c1)O[C@H](CN(C)S(=O)(=O)c1cccc(F)c1)[C@H](C)CN([C@@H](C)CO)S2(=O)=O | 0.969
Cn1cnc(S(=O)(=O)N[C@@H]2CC[C@@H](CC(=O)N3CCN(c4ccccc4)CC3)O[C@H]2CO)c1 | 1.06
CC1(C)S[C@@H]2[C@H](NC(=O)C3(N)CCCCC3)C(=O)N2[C@H]1C(=O)O | 1.1
Cn1c(=O)c2c(nc(N3CCOCC3)n2CCN)n(C)c1=O | 1.1
CCSC1=C(C#N)C(=O)N[C@@H](CO)S1 | 1.02
O=c1cc(-c2ccccc2O)oc2ccc(O)cc12 | 1
COCC#Cc1ccc2c(c1)O[C@@H](CN(C)C(=O)C1CCCCC1)[C@@H](C)CN([C@H](C)CO)S2(=O)=O | 0.979
COCCNC(=O)C[C@H]1CC[C@@H]2[C@H](COC[C@@H](O)CN2C(=O)Nc2ccc3c(c2)OCO3)O1 | 1.05
COC(=O)c1c(C)cc(OC)cc1O | 0.832
C=CCOC(=O)[C@@H]1[C@H]2C(=O)O[C@H](c3ccccc3)[C@H](c3ccccc3)N2[C@H](c2ccc(OCCOC(=O)[C@H]3C[C@H]4C(=O)NCC(=O)N4[C@H]3c3ccc(O)cc3)cc2)[C@@]12C(=O)Nc1ccc(I)cc12 | 1.37
NC(=O)CC[C@H](N)C(=O)O | 1.1
O=C1c2ccccc2C(=O)C1c1ccc(Br)cc1 | 1.14
O=C(N[C@@H]1CC[C@H](CCNS(=O)(=O)c2ccc(F)cc2)O[C@H]1CO)C1CC1 | 1.05
Cc1ccc2nc(-c3ccco3)[nH]c2c1 | 0.926
CCCCC/C=C\C/C=C\C/C=C\CCCCCCC(=O)O | 1.26
C=CCNC(=O)[C@H]1[C@@H]2C(=O)O[C@@H](c3ccccc3)[C@@H](c3ccccc3)N2[C@@H](c2ccccc2OCCO)[C@]12C(=O)Nc1ccc(C#CC3=CCCCC3)cc12 | 1.22
CCCCCCc1nc(-c2ccc(-c3ccc(Cl)c(Cl)c3)o2)cc2c1[Si](C(C)C)(C(C)C)O[C@H]2c1ccccc1 | 1.02
CCCNC(=O)[C@@H]1c2ccccc2C(=O)N(Cc2cc(F)cc(C(F)(F)F)c2)[C@H]1c1ccc(CO)cc1 | 0.962

SMILES | relative growth
O=C(C[C@H]1C=C[C@@H](NC(=O)c2cnccn2)[C@H](CO)O1)NCc1ccccc1F | 1.08
CN1CCN2c3ccccc3Cc3ccccc3C2C1.Cl (centres undefined) | 1.07
CCN(CC)CCNC(C(=O)OCCC(C)C)c1ccccc1.Cl.Cl (centres undefined) | 1.04
CCNC(=O)c1sc(C)nc1N | 0.822
Clc1ccc(CSc2nc3ccccc3s2)cc1 | 1.12
CC(C)C#Cc1ccc2c(c1)O[C@@H](CN(C)C(=O)c1cccc(F)c1)[C@@H](C)CN([C@@H](C)CO)S2(=O)=O | 1.04
Cc1cc2c(s1)Nc1ccccc1N=C2N1CCN(C)CC1 | 0.958
CCN(CC)CCOC(=O)c1ccc(N)cc1.Cl | 1.05
Cn1cnc(S(=O)(=O)N2C[C@@H](O)COC[C@H]3O[C@@H](CC(=O)NCc4cc(F)cc(F)c4)CC[C@@H]32)c1 | 0.998
NNC(=O)CCCCC(=O)NO | 1
NCc1ccc(S(=O)(=O)N2CCOCC2)cc1 | 1.03
O=C(C[C@@H]1CC[C@H]2[C@@H](COC[C@H](O)CN2Cc2ccccc2F)O1)N[C@H]1CCN(Cc2ccccc2)C1 | 0.958
O=C1COC2(CN1)COC2 | 1.05
CC(=O)N(C)CCc1ccc(C)[n+]([O-])c1 | 1.05
CCC(=O)N(C)C[C@@H]1Oc2ncc(C#C[C@@H](C)O)cc2C(=O)N([C@@H](C)CO)C[C@H]1C | 1.01
C=C[C@H]1CN2CC[C@H]1C[C@@H]2[C@H](O)c1ccnc2ccc(OC)cc12.Cl | 1.03
CC(C)(C)c1ccc(NC(=O)N[C@H]2CCCc3ccccc32)cc1 | 1.09
CO[C@H](CN(C)C(=O)c1ccccc1F)[C@H](C)CN([C@@H](C)CO)S(=O)(=O)c1ccc(Cl)cc1 | 0.832
COc1ccc(S(=O)(=O)N(C)C[C@@H]2Oc3ccc(NC(=O)Nc4cccc5c4CCCC5)cc3CC(=O)N([C@@H](C)CO)C[C@@H]2C)cc1Cl | 0.894
CC(C)OC(=O)C(C)(C)Oc1ccc(C(=O)c2ccc(Cl)cc2)cc1 | 0.999
C[C@H](CO)N1C[C@H](C)[C@H](CN(C)S(=O)(=O)c2ccccc2)Oc2cc(Br)ccc2S1(=O)=O | 0.946

SMILES | relative growth
O=C(C[C@H]1C=C[C@H](NC(=O)C2CCOCC2)[C@H](CO)O1)NCCc1cscn1 | 1.01
CN1CCN(C(=O)C[C@H]2C[C@@H]3c4cc(NS(=O)(=O)c5ccc(F)cc5)ccc4O[C@@H]3[C@@H](CO)O2)CC1 | 1.05
CC(C)c1nc(/N=C/N(C)C)nc(=O)n1C | 1.02
Cc1ccc(C=Nn2nnnc2N)s1 | 0.968
O=C(O)[C@H]1C2C(=O)N(C3CC3)C[C@]23C=C[C@H]1O3 (some centres undefined) | 1.19
c1cc(-c2nnc(Cn3cncn3)[nH]2)ccn1 | 1.04
CCOc1ccc2nc(C34CC5CC(CC(C5)C3)C4)ccc2c1 | 1.15
CC(C)(C)OC(=O)NC(=NCCn1cc(-c2cccc(/C=C/C(=O)NO)c2)nn1)NC(=O)OC(C)(C)C | 1.11
CCOC(=O)[C@H](CCc1ccccc1)N[C@@H](C)C(=O)N1Cc2cc(OC)c(OC)cc2C[C@H]1C(=O)O.Cl | 1.05
C=CCC[C@H](Cc1ccc(F)cc1)C(=O)OC[C@@H](NC(=O)[C@@H](CC=C)CC(=O)N(CCO)Cc1ccccc1)C(C)(C)C | 1.25
CN(C)CCC(c1ccc(Cl)cc1)c1ccccn1.O=C(O)/C=C\C(=O)O (centres undefined) | 0.913
O=C(C[C@@H]1CC[C@H](NC(=O)Cc2ccccn2)[C@@H](CO)O1)NCCCN1CCOCC1 | 0.969
O=C(COc1ccccc1)Nc1nn[nH]n1 | 0.921
CCOc1ccc2nc(S(N)(=O)=O)sc2c1 | 1.05
C[C@@H]1CN([C@H](C)CO)C(=O)c2cc(C#Cc3ccccc3F)cnc2O[C@@H]1CN(C)S(=O)(=O)c1ccccc1 | 0.953
c1coc(CNc2ncnc3[nH]cnc23)c1 | 1.02
CCNC(=O)C[C@@H]1CC[C@H](NC(=O)C2CCOCC2)[C@H](CO)O1 | 1.17
C=CC[C@@H](CC(=O)N(CCO)Cc1ccccc1)C(=O)N[C@H](COC(=O)[C@@H](CC=C)CC(=O)OC(C)(C)C)Cc1c[nH]c2ccccc12 | 1.12
C[C@@H]1CCCCO[C@H](CN(C)Cc2ccc3c(c2)OCO3)[C@H](C)CN([C@@H](C)CO)C(=O)c2cc(NS(=O)(=O)c3ccc(Cl)cc3)ccc2O1 | 1.05
O=C(CN1CCOCC1)NCC[C@H]1CC[C@@H](NS(=O)(=O)c2ccc(Cl)cc2)[C@@H](CO)O1 | 0.942
CC[C@]1(O)CC2CN(CCc3c([nH]c4ccccc34)[C@@](C(=O)OC)(c3cc4c(cc3OC)N(C=O)[C@H]3[C@@](O)(C(=O)OC)[C@H](OC(C)=O)[C@]5(CC)C=CCN6CC[C@]43[C@@H]65)C2)C1.O=S(=O)(O)O (some centres undefined) | 0.965

SMILES | relative growth
O=C(O)c1ccccc1O | 1.24
CC1/C=C/C=C/C=C/C=C/C=C/C=C/C=C/C(OC2O[C@H](C)[C@@H](O)[C@H](N)[C@@H]2O)CC(O)C(C(=O)O)C(O)CC(=O)CC(O)CC(O)CC(O)CC(=O)CCCC(=O)CC(=O)OC1C(C)CC(C)C(O)CC(=O)c1ccc(N)cc1 (some centres undefined) | 1.13
CO[C@H]1CN(C)C(=O)c2ccc(NS(=O)(=O)c3cn(C)cn3)cc2OC[C@H](C)N(CC2CC2)C[C@H]1C | 0.882
NCC[C@H]1CC[C@H](NC(=O)NC2CCCCC2)[C@H](CO)O1 | 0.946
CCOC(=O)c1c[nH]c(=S)[nH]c1=O | 1.01
COc1ccc(C(=O)Nc2cccc(CN3C(=O)[C@@]4(O[C@@H](CC(=O)N5Cc6ccccc6C[C@H]5CO)[C@H]([Si](C)(C)c5ccc(OC)cc5)[C@H]4C)c4ccccc43)c2)cc1 | 1.02
CCOC(=O)C1=C[C@@H](OC(CC)CC)[C@H](NC(C)=O)[C@@H](N)C1.O=P(O)(O)O | 1.04
O=c1oc2cc(O)ccc2s1 | 0.924
O=C(C[C@H]1C[C@@H]2c3cc(NC(=O)c4ccc5c(c4)OCO5)ccc3O[C@@H]2[C@H](CO)O1)NCc1ccc(Oc2ccccc2)cc1 | 1.17
COC(=O)Nc1c(C)cc(C)cc1C | 1.03
CN(C)CN1C(=O)c2ccccc2C1=O | 1.01
N.N.O=C1[O][Pt][O]C(=O)C12CCC2 | 0.802
Cc1ccc2c(c1)c1nc3ccccc3nc1n2Cc1ccccc1 | 1.02
CN(C)CCCNC(=O)C[C@H]1C=C[C@@H](NC(=O)Cc2cccnc2)[C@@H](CO)O1 | 1.01
COc1oc(C(=O)NC2CCCCC2)c(-c2ccc(Cl)cc2)c1S(=O)(=O)c1cccc(Cl)c1 | 0.93
CC(C)(C)OC(=O)C[C@H]1CC=CC[C@@H](CC(=O)NCCO)C(=O)N[C@@H](Cc2ccccc2)COC1=O | 0.967
C/C(=C\C(=O)OCCCCCCCCC(=O)O)C[C@@H]1OC[C@H](C[C@@H]2O[C@H]2[C@@H](C)[C@H](C)O)[C@@H](O)[C@H]1O | 0.969
CCOC(=O)c1cnn2c(N)c(C#N)cnc12 | 1
Nc1cc(=O)[nH]c(=O)n1Cc1ccccc1 | 1.02
COCC#Cc1ccc2c(c1)O[C@H](CN(C)Cc1ccc3c(c1)OCO3)[C@H](C)CN([C@@H](C)CO)S2(=O)=O | 0.856
NC(=O)CN1CCCCCC1=O | 0.822
